Data set [1] deals with AGS cells. Description: Overall effect (cytotoxic effect x clonogenic effect). The following applies: 72 h.
For data set [2], the system named is KATO III cells. Described as above. To be noted: for overall effect (colonies count multiplying the cytotoxic effect): KATO III, 72 h.
Data set [3] concerns AGS cells. The experiment in a line: Cytotoxic effect by cell count after 72 h, with and without TTFields. To be noted: Two-way ANOVA P<0.001.
The subject of data set [4] is KATO III cells. The description is as above. The following applies: Two-way ANOVA.

Turning to `O=C1[O][Pt]2([NH][C@@H]3CCCC[C@H]3[NH]2)[O]C1=O` [Oxaliplatin], the “overall effect (colonies count multiplying the cytotoxic effect)” value was found to be 41 % from control with AGS cells [1] (25 nM, + TTFields 150 kHz 1.0 V/cm); 78 % from control with AGS cells [1] (25 nM, no TTFields); 34 % from control with AGS cells [1] (50 nM, + TTFields 150 kHz 1.0 V/cm); 73 % from control with AGS cells [1] (50 nM, no TTFields); 26 % from control in the data set with AGS cells [1] (100 nM, + TTFields 150 kHz 1.0 V/cm); 63 % from control in the data set with AGS cells [1] (100 nM, no TTFields). For the same molecule, the “overall effect (colonies count multiplying the cytotoxic effect)” value with AGS cells [1] (200 nM, + TTFields 150 kHz 1.0 V/cm) came out at 11 % from control; in the data set with AGS cells [1] (200 nM, no TTFields), 35 % from control; in the data set with AGS cells [1] (400 nM, + TTFields 150 kHz 1.0 V/cm), 3 % from control; in the data set on AGS cells [1] (400 nM, no TTFields) it was 6 % from control; in the data set on AGS cells [1] (FOLFOX experiment, 50 nM, + TTFields 150 kHz 1.0 V/cm), 29 % from control; in the data set on AGS cells [1] (FOLFOX experiment, 50 nM, no TTFields), 68 % from control. The “overall effect (colonies count multiplying the cytotoxic effect)” value in the data set with KATO III cells [2] (50 nM, + TTFields 150 kHz 1.6 V/cm) is on record as 28 % from control; in the data set with KATO III cells [2] (50 nM, no TTFields) it was 75 % from control; in the data set with KATO III cells [2] (100 nM, + TTFields 150 kHz 1.6 V/cm), 30 % from control; in the data set with KATO III cells [2] (100 nM, no TTFields), 65 % from control; in the data set on KATO III cells [2] (200 nM, + TTFields 150 kHz 1.6 V/cm) it was 16 % from control; in the data set with KATO III cells [2] (200 nM, no TTFields), 52 % from control. Further, the “overall effect (colonies count multiplying the cytotoxic effect)” value was 6 % from control in the data set on KATO III cells [2] (400 nM, + TTFields 150 kHz 1.6 V/cm) and 13 % from control in the data set on KATO III cells [2] (400 nM, no TTFields). Besides, the “Mean of colonies count multiplying the cytotoxic effect to determine overall effect (% from control), Chemotherapy” value in the data set on KATO III cells [2] (chemotherapy alone, without TTFields, 72 h treatment, oxaliplatin 50 nM, 5-FU 1.5 uM, leucovorin 5 uM, FOLFOX = mix of all 3) is given as 61 % from control. Also, the “Mean of colonies count multiplying the cytotoxic effect to determine overall effect (% from control), TTFields + Chemotherapy” value in the data set on KATO III cells [2] (chemotherapy with TTFields for 72 h, oxaliplatin 50 nM, 5-FU 1.5 uM, leucovorin 5 uM, FOLFOX = mix of all 3) turned out to be 17 % from control. The “cytotoxic effect of drug + TTFields compared to drug alone” value in the data set on AGS cells [3] and in the data set with KATO III cells [4] was “significantly higher” each time.

The values are drawn from patent US20250082931A1, “Treating Gastric Cancer Using TTFields Combined with XELOX, FOLFOX or the Individual Constituents Thereof” (Novocure GmbH, priority 2019, published 2025).
